Target: Mu-type opioid receptor (Cavia porcellus, UniProt P97266)
Test: Binding affinity of compound towards mu receptor by using radioligand [3H]DAMG0 on guinea pig brain membranes

Chains of the proteins cited; added tags and fusions are not shown.
UniProt P97266, whole entry, looked up: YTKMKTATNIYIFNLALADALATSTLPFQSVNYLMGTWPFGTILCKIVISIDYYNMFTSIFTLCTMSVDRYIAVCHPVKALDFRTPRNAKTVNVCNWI

CN(C(=O)Cc1ccc(Cl)c(Cl)c1)[C@H](CN1CCCC1)c1cccc(N=C=S)c1
IC50: 1800 nM

— ChEMBL document CHEMBL1127843, “2-(3,4-Dichlorophenyl)-N-methyl-N-[(1S)-1-(3-isothiocyanatophenyl)-2-(1-pyrrolidinyl)ethyl]acetamide: an opioid receptor affinity label that produces selective and long-lasting kappa antagonism in mice” (J Med Chem, 1994)
